For the assay, the system named is fresh cells. Kind of assay: Tests in cell cultures: cells doped with nascent HCG, cancerous cell growth. The format is cell-based. Particulars: nascent HCG from early embryonic states of mamifers.

Regarding “HCG: Human Chorionic Gonadotropin; nascent HCG from early embryonic states, used to dope cell cultures”, the cancerous cell growth entry is reported as “promotes cancerous cell growth”.

The values are drawn from patent US9814730B2, “Pharmaceutical composition or group of compositions for inhibiting autocrine HCG production in adult human cells” (FLAMINA HOLDING AG, priority 2013, dated 2017).
